System: MDA-MB-436 cells
Assay: Clone formation test of MDA-MB-436 cells
Settings: read-out: IC50 (nM), inhibitory activity on MDA-MB-436 cell clones; 14 days, crystal violet, OD 570 nm; tested form: trifluoroacetate
Procedure: In this experiment, MDA-MB-436 cells were treated by adding a test compound to detect the ability of cell clone formation. At the beginning of the experiment, MDA-MB-436 cells (ATCC, HTB-130) were added to a 96-well plate (Corning, 3599), with 500 cells per well, and they were subjected to adherent culture overnight. The next day, the compound diluted in a gradient was added, and culture was continued in a […] incubator at 37° C. On the 7th day, the old culture medium was discarded, and the test compound diluted in a gradient was added again. At the 14th day, the 96-well plate was taken out, the culture liquid was discarded, and cell clones were detected by Crystal violet Assay kit. PHERAstar FSX microplate reader (BMG LABTECH) was used for detection of OD at 570 nm. The IC50 value was calculated using GraphPad Prism software.

COc1ncnc(C2CC2)c1-c1ncc2cnn(Cc3ccc(-n4nc(C(F)(F)F)cc4C)cc3)c2c1F
IC50: < 200 nM
